The text below walks through data of patent US20090092553A1, “MONOCARBOXYLATE TRANSPORTERS EXPRESSED IN CANCER CELLS” (Xenoport,Inc., priority 2003, published 2009).

For experiment [1], the system named is HT29 human colon carcinoma cell line. Kind of experiment: Alamar blue cytotoxicity assay, HT29 cells. The following applies: HT29, 48 hour treatment. The protocol: (§1) . HT29, KB, LoVo, and PC3 cells were seeded on UV sterilized, black, clear-bottom 96-well plates at approximately ten thousand cells per well. The cells were allowed to adhere overnight at 37° C., 5% CO2 in a humidified environment in the following media: for HT-29 cells, RPMI 1640 with 25 mM HEPES and 2 mM L-glutamine, supplemented with 5% FBS, 2 mM L-glutamine, and Pen/Strep/Fungizone; for LoVo and PC-3 cells, F12K supplemented with 10% FBS, 2 mM L-glutamine and Pen/Strep/Fungizone; and for KB cells, a 1:1 mixture of HYQ SFM4HEK293 (Hyclone):RPMI 1640 with 25 mM HEPES and 2 mM L-glutamine, supplemented with 2.5% FBS, 2 mM L-glutamine and Pen/Strep/Fungizone. […] . In addition, each plate contained a row of positive controls, a row of media only controls, and a row of negative controls in which 100% DMSO was added. The positive control for cytotoxicity was chlorambucil. The positive controls for transport were lactic acid and thiophene glyoxylic acid. After the compounds and controls were added to the cells, the plates were returned to the cell culture incubators. After 48 hours, 10 μl Alamar blue was added to each well. Fluorescence of each well was read six hours after adding the Alamar blue. The percentage of live cells was calculated for each well by the following formula: {FluorWell−FluorNegControl)/FluorPosControl−FluorNegControl)}*100.
Background: Resazurin is reduced to fluorescent resorufin, in cell work by metabolically active cells.

Experiment [2] has as its system KB human oral epidermoid carcinoma cell line. Kind of experiment: Alamar blue cytotoxicity assay, KB cells. As to conditions: 48 hour treatment. The protocol:
as §1

Experiment [3] concerns LoVo human colorectal cancer cell line. Kind of experiment: Alamar blue cytotoxicity assay, LoVo cells. As to conditions: 48 hour treatment. The protocol:
as §1

Consider `O=C(O)CON(CCCl)CCCl`, for which the GI50 was determined as 116 µM in experiment [1], 102 µM in experiment [2] and 30 µM in experiment [3].

A word on the GI50: it is the concentration at which growth is held to half of that of the control. High values mean lower sensitivity of the cells, low ones greater sensitivity of the cells.
